Test results published in publication PMC3639985, “Differential Ligand Binding Affinities of Human Estrogen Receptor-α Isoforms” (PLoS ONE, 2013).

By UniProt entry, the sequences of proteins in these tests, tags left out. Residues count along the entry.
UniProt P03372, whole entry: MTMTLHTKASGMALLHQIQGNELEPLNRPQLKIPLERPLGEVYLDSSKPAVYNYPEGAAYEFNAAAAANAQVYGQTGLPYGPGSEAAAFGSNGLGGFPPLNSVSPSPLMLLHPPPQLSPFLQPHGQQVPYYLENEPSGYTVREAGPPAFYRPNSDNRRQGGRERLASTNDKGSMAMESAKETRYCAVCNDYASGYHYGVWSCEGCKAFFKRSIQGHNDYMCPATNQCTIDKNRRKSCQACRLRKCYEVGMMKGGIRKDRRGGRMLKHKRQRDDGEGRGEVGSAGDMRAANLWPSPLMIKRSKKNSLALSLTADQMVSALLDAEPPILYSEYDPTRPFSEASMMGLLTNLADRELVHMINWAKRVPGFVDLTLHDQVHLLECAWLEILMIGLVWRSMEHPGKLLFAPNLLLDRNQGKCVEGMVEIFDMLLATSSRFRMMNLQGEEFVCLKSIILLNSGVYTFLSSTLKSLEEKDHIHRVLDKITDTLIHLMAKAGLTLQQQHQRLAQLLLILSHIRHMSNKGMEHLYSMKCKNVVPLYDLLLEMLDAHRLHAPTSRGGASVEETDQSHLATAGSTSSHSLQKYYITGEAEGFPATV
UniProt P03372, 174-595: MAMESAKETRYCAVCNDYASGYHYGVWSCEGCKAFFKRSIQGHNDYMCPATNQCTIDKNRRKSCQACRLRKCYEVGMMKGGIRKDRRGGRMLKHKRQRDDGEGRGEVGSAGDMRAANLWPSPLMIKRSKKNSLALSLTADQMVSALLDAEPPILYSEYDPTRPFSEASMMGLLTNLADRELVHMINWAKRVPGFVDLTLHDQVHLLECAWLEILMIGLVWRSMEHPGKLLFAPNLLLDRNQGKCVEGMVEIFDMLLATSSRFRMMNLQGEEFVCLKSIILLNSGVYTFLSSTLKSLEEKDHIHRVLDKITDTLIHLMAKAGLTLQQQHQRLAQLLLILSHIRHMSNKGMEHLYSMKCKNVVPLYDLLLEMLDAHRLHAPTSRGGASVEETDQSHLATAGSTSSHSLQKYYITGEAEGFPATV

Tests used:
human ER66 = human ER66 (Homo sapiens, UniProt P03372); experiment: Competitive [3H]-17β-estradiol ligand binding assay, ER66; conditions: read-out: IC50 ER66
human ER46 = human ER46 (Homo sapiens, UniProt P03372); experiment: Competitive [3H]-17β-estradiol ligand binding assay, ER46; conditions: read-out: IC50 ER46

IC50 (human ER66): 11.5 nM
IC50 (human ER46): 3.53 nM
Substance: methyl-piperidino-pyrazole dihydrochloride [MPP]
